Screening data (PubChem BioAssay)
The full list was thinned out, with hits kept by preference.
GIV-Gai inh = inhibitors of GIV GBA-motif binding to rat Galpha-i3; P08753; Galpha-i3/FITC-GIV peptide fluorescence polarization, 90 min; active compounds read low; scaled: aluminum fluoride 0%, vehicle 100%; percent of control (FP), % (test concentration not listed); 210,000 tested, 0.42% active; AID 1224905;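 active = replicate mean at 85% of control or lower, very high polarization wells dropped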;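 note: lower values mean more displacement of the GIV peptide from Galpha-i3; wells of about 15 µL received 100 nL stock; the first replicate is given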
GIV-Gai FP conf = confirmation of inhibitors of GIV binding to rat Galpha-i3; shares compounds with GIV-Gai inh; FITC-GIV peptide binding to Galphai3, fluorescence polarization; hits give low values; fluorescence polarization, mP at 100 µM; 38% of 580 active;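 active = inhibition score of 15 or more, meaning 100 minus mean polarization as percent of control over three replicates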;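 also: lower mP means peptide displaced from Galphai3 so more inhibition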
GIV Gai AS conf = confirmation of inhibitors of GIV binding to human Galpha-i3; shares compounds with GIV-Gai inh; AlphaScreen Galphai3-GIV binding, purified proteins, 90 min; hits give low values; AlphaScreen counts at 100 µM; 39% of 580 active; AID 1259351;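 active = inhibition score at or above a set limit, where the score is 100 minus the three-replicate mean percent of control signal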
An asterisk follows results filed as active.

SMILES	GIV-Gai inh	others
N#Cc1c(/N=C/c2ccc(Cl)cc2)oc(-c2ccccc2)c1-c1ccccc1	109
COc1ccc(/C=N/c2oc(-c3ccccc3)c(-c3ccccc3)c2C#N)cc1	120
CCC(C)NS(=O)(=O)c1cc2c(cc1C)NC(=O)CO2 (stereo not given)	110
COc1ccc(-c2nnc(SCC(=O)Nc3ccccc3OC)nc2-c2ccc(OC)cc2)cc1	115
COc1ccc(-c2nnc(SCC(=O)Nc3cccc(C)c3C)nc2-c2ccc(OC)cc2)cc1	119
COc1ccc(-c2nnc(SCC(=O)Nc3ccc(C)cc3)nc2-c2ccc(OC)cc2)cc1	91	GIV-Gai FP conf=65;GIV Gai AS conf=47508
CCOC(=O)c1cc(S(=O)(=O)N2CCCC2C(=O)NC2CCCCC2)cn1C (stereo not given)	104
CCSc1ccc(SC#N)s1	94
O=C1/C(=C\c2ccco2)SC(=S)N1Cc1ccccc1	101
O=C(O)C(Cc1ccccc1)N1C(=O)/C(=C\c2ccco2)SC1=S (stereo not given)	91
O=C(O)CC(C(=O)O)N1C(=O)/C(=C\c2ccco2)SC1=S (stereo not given)	86	GIV-Gai FP conf=53*;GIV Gai AS conf=3647*
CC1=C(C#N)C(=O)N(C)C(=O)/C1=C/c1ccc(-c2ccccc2C(=O)O)o1	84*	GIV-Gai FP conf=68;GIV Gai AS conf=2072*
C=CCN1C(=O)C(C#N)=C(C)/C(=C\c2ccc(-c3cccc(C(=O)O)c3)o2)C1=O	83*	GIV-Gai FP conf=79;GIV Gai AS conf=2591*
CC1=C(C#N)C(=O)N(CCc2ccccc2)C(=O)/C1=C\c1ccc(-c2cccc(Cl)c2)o1	101
COC(=O)c1ccc(-c2ccc(/C=C3/C(=O)N(C)C(=O)C(C#N)=C3C)o2)cc1	100
CC1=C(C#N)C(=O)N(C)C(=O)/C1=C/c1ccc(-c2cccc(Cl)c2C)o1	106
CN1C(=O)C(=Cc2ccc(-c3cccc(C(=O)O)c3)o2)C(=O)N(C)C1=S	92
Cn1c(SCCC(=O)Nc2ccccc2)nnc1-c1cc2ccccc2o1	110
Cn1cc(S(=O)(=O)N2CCCCC2)cc1C(=O)NC1CCCC1	104
O=C(CCN1C(=O)/C(=C/c2ccc3c(c2)OCO3)SC1=S)Nc1nc2ccccc2s1	72*	GIV-Gai FP conf=88;GIV Gai AS conf=35546
O=C(CCN1C(=O)/C(=C/c2ccc3c(c2)OCO3)SC1=S)Nc1nc(-c2ccccc2)cs1	107
O=C(CCN1C(=O)/C(=C/c2cccs2)SC1=S)Nc1nc2ccccc2s1	114
COCCNC(=O)N1CCCN(c2nc3cc(F)ccc3n3cccc23)CC1	101
CCn1nc(C)c(CCNC(=O)c2ccc(NC(=O)C3=CSCCO3)cc2)c1C	105
Cc1cc(C)cc(NC(=O)c2ccc3cccc(O)c3n2)c1	100
O=S(=O)(c1ccc(-c2cnc(C3CCC3)o2)s1)N1CCOCC1	105
Cn1c(=O)c2c(c3ccccc31)OC(=O)CC2c1ccccc1 (stereo not given)	111
Cn1c(=O)cc(Cl)c2ccccc21	106
Cn1c(-c2ccccc2)c(/C=C2/C(=O)Oc3ccccc3C2=O)c2ccccc21	44*	GIV-Gai FP conf=66;GIV Gai AS conf=25749
CC(=O)Nc1nonc1-c1nnc(SCC(=O)Nc2cc(C)cc(C)c2)n1C	101
CC(=O)Nc1nonc1-c1nnc(SCc2ccc(C)cc2)n1C	98
CC(=O)NC1=CC(=O)c2nonc2C1=O	4.4*	GIV-Gai FP conf=26*;GIV Gai AS conf=7791*
Cc1cc(=O)n(CCOc2ccccc2)c2c1c(C)nn2-c1ccccc1	101
CCOC(=O)C1=C(C)N=c2s/c(=C\c3cc([N+](=O)[O-])ccc3N3CCOCC3)c(=O)n2C1c1ccc(F)cc1 (stereo not given)	74*	GIV-Gai FP conf=64;GIV Gai AS conf=55281
CCOC(=O)C1=C(C)N=c2s/c(=C\c3cc([N+](=O)[O-])ccc3N3CCOCC3)c(=O)n2C1c1ccc(N(C)C)cc1 (stereo not given)	113
CCOC(=O)C1=C(C)N=c2s/c(=C\c3cc([N+](=O)[O-])ccc3N3CCOCC3)c(=O)n2C1c1ccc(OC)c(OC)c1 (stereo not given)	110
CCCCNC(=O)Cn1cnc2nc(SCC)ncc2c1=O	107
COc1cccc(CN2C(=O)c3ccccc3Sc3ccc(C(=O)NC(C)c4ccccc4)cc32)c1 (stereo not given)	109
COc1ccc(/C=C2\C=C(c3ccccc3)N(c3ccc(Br)cc3C)C2=O)cc1	34*	GIV-Gai FP conf=65;GIV Gai AS conf=40529
COc1ccc(/C=C2\C=C(c3ccccc3)N(c3ccc(Br)cc3C)C2=O)cc1Br	110
COc1ccc(/C=C2\C=C(c3ccccc3)N(c3cccc(Br)c3)C2=O)cc1	110
CCN(Cc1ccccc1)c1ccc(NC(=O)c2ccc(Cl)cc2)cc1C(=O)O	102

Five structures from above, ordered by SMILES length, ascending.
SMILES	GIV-Gai inh	others
CC(=O)Nc1nonc1-c1nnc(SCc2ccc(C)cc2)n1C	98
Cc1cc(=O)n(CCOc2ccccc2)c2c1c(C)nn2-c1ccccc1	101
COc1ccc(/C=C2\C=C(c3ccccc3)N(c3ccc(Br)cc3C)C2=O)cc1Br	110
COc1cccc(CN2C(=O)c3ccccc3Sc3ccc(C(=O)NC(C)c4ccccc4)cc32)c1 (stereo not given)	109
CCOC(=O)C1=C(C)N=c2s/c(=C\c3cc([N+](=O)[O-])ccc3N3CCOCC3)c(=O)n2C1c1ccc(OC)c(OC)c1 (stereo not given)	110
